Laboratory results from ChEMBL document CHEMBL1153301, “Identification and SAR of novel diaminopyrimidines. Part 1: The discovery of RO-4, a dual P2X(3)/P2X(2/3) antagonist for the treatment of pain” (Bioorg Med Chem Lett, 2009).

molecular target: T1, P2X purinoceptor 3 (Rattus norvegicus, UniProt P49654); experiment: Antagonist activity at rat recombinant P2X3 receptor expressed in CHO cells by FLIPR assay
T1 sequence (P49654 whole entry): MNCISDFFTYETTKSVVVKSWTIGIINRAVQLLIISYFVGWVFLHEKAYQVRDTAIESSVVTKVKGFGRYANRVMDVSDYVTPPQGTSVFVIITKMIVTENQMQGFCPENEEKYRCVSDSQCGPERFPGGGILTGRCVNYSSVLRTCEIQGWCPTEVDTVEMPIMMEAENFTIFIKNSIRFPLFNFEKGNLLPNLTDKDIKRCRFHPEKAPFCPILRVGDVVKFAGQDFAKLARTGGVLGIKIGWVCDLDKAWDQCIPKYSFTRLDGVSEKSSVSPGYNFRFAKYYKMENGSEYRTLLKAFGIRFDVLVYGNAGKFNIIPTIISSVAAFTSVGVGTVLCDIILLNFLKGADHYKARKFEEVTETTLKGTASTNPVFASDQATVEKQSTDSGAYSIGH

Compared with COc1cc(Cc2cnc(N)nc2N)c(C(C)(C)C)cc1OC, COc1cc(Cc2cnc(N)nc2N)c(C(C)C)cc1OC is lower in IC50: over 10 µM for the first, 0.126 µM for the second.

In the case of CCCc1cc(OC)c(OC)cc1Cc1cnc(N)nc1N, the IC50 is reported as over 10 µM.
